Measured values from patent publication US20250368649A1, “TETRAHYDROPYRIDOPYRIMIDINE PAN-KRAS INHIBITORS” (Mirati Therapeutics, Inc., priority 2022, published 2025).

By UniProt entry, the sequences of proteins in these tests, tags left out. Where a name states a change or a piece, a line headed by the entry shows the natural chain unless it says otherwise.
UniProt P01116: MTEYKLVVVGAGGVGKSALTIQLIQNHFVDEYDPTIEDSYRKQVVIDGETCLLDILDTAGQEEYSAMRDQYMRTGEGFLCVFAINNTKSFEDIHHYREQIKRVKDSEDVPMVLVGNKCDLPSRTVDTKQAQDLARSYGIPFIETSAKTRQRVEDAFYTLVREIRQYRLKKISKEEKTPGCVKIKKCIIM

How the values were obtained:
[1] = tested on: A549 cells; experiment: Inhibition of KRas-mediated phosphorylation of ERK (Cisbio HTRF pERK), A549 cells; type: cell-based; details: single point at 100 nM, 3 hrs compound incubation
[2] = tested on: HCT116 cells; experiment: Inhibition of KRas-mediated phosphorylation of ERK (Cisbio HTRF pERK), HCT116 cells; type: cell-based; details: single point at 100 nM, 3 hrs compound incubation
[3] = target: KRas G12V (Homo sapiens, UniProt P01116, G12V); experiment: KRas binding assay (TR-FRET displacement), KRas G12V; details: read-out: Binding to KRas (IC50 nM) G12V
[4] = tested on: ASPC1 cells; experiment: Inhibition of KRas-mediated phosphorylation of ERK (Cisbio HTRF pERK), ASPC1 cells; type: cell-based; details: AsPC-1 cells
[5] = tested on: H460 cells; experiment: Inhibition of KRas-mediated phosphorylation of ERK (Cisbio HTRF pERK), H460 cells; type: cell-based; details: single point at 100 nM, 3 hrs compound incubation
[6] = target: KRas G12R (Homo sapiens, UniProt P01116, G12R); experiment: KRas binding assay (TR-FRET displacement), KRas G12R; details: read-out: Binding to KRas (IC50 nM) G12R
[7] = tested on: H358 cells; experiment: Inhibition of KRas-mediated phosphorylation of ERK (Cisbio HTRF pERK), H358 cells; type: cell-based; details: single point at 100 nM, 3 hrs compound incubation
[8] = target: KRas G12D (Homo sapiens, UniProt P01116, G12D); experiment: KRas binding assay (TR-FRET displacement), KRas G12D; details: read-out: Binding to KRas (IC50 nM) G12D
[9] = tested on: H727 cells; experiment: Inhibition of KRas-mediated phosphorylation of ERK (Cisbio HTRF pERK), H727 cells; type: cell-based
[10] = single point at 100 nM, 3 hrs compound incubation

Structure (SMILES): CCc1c(F)ccc2cc(O)cc(N3CCc4c(nc(OC[C@@]56CCCN5C[C@H](F)C6)nc4N4CCCn5nc(NP(C)(C)=O)cc5C4)C3)c12
- Inhibition (HTRF % at 100 nM) of KRas-mediated Phosphorylation of ERK, A549 [1]: −12%
- Inhibition (HTRF % at 100 nM) of KRas-mediated Phosphorylation of ERK, HCT116 [2]: 2%
- IC50 [3]: 2 nM
- IC50 ([4]; read-out: Inhibition (HTRF IC50 nM) of KRas-mediated Phosphorylation of ERK, AsPC-1, 3 hr compound incubation, Cisbio pERK HTRF): 1310 nM
- Inhibition (HTRF % at 100 nM) of KRas-mediated Phosphorylation of ERK, AsPC-1 [4, 10]: 5%
- Inhibition (HTRF % at 100 nM) of KRas-mediated Phosphorylation of ERK, H460 [5]: 7%
- IC50 [6]: 3 nM
- Inhibition (HTRF % at 100 nM) of KRas-mediated Phosphorylation of ERK, H358 [7]: 7%
- IC50 [8]: < 2 nM
- IC50 ([9]; read-out: Inhibition (HTRF IC50 nM) of KRas-mediated Phosphorylation of ERK, H727, 3 hr compound incubation, Cisbio pERK HTRF): 3050 nM
- Inhibition (HTRF % at 100 nM) of KRas-mediated Phosphorylation of ERK, H727 [9, 10]: −12%
